Data as given in PubChem BioAssay AID1195 (EPA DSSTox, 2008).

System: human maximum recommended daily dose, FDA database
Assay: DSSTox (FDAMDD) FDA Maximum (Recommended) Daily Dose Database
Conditions: active compounds read low
From the text: The Food and Drug Administration (FDA) Center for Drug Evaluation and Research, Office of Pharmaceutical Science, Informatics and Computational Safety Analysis Staff's Maximum Recommended Daily Dose (FDAMDD) database contains values for over 1200 pharmaceuticals listed in Martindale: The Extra Pharmacopoeia (1973, 1983, and 1993) and The Physicians' Desk Reference (1995 and 1999). Some classes of chemicals were excluded from the FDAMDD database due to their unsuitability for most QSAR modeling programs. These were inorganic chemicals, high molecular weight polymers (>5000 Daltons), fibers, salts, mixtures of organic chemicals, and small molecules (<100 Daltons). FDAMDD is the non-proprietary portion of the database that was used in the QSAR analysis reported in the Main Citation. DSSTox FDAMDD has fewer substance records than the original MRDD Source database due to consolidation of partial structures (i.e., complexed entities) into a single record and elimination of duplicate entries. […]
Maximum recommended daily dose (or maximum recommended therapeutic dose) values were determined from pharmaceutical clinical trials that employed an oral route of exposure and daily treatments, usually for 3-12 months. […]

| Structure (SMILES) | maximum recommended daily dose (mmol/kg-bw/day) (TherapeuticCategory: vasodilator) | maximum recommended daily dose (mmol/kg-bw/day) (TherapeuticCategory: coronary vasodilator) |
| --- | --- | --- |
| O=[N+]([O-])OCC(CO[N+](=O)[O-])(CO[N+](=O)[O-])CO[N+](=O)[O-] | 0.0127 |  |
| O=[N+]([O-])OC[C@H](O[N+](=O)[O-])[C@@H](CO[N+](=O)[O-])O[N+](=O)[O-] |  | 0.00553 |
